Earlier results, collected in patent US20190022259A1, “Use of 99mTc-tilmanocept and related molecular constructs for identifying and diagnosing malignant tumors and for monitoring therapeutic anti-tumor interventions” (Navidea Biopharmaceuticals, Inc., priority 2017, published 2019).

Protein sequences, listed by entry. Tags and fused reporters are not part of them. Residues count along the entry.
UniProt P22897, 19-1456, species assumed: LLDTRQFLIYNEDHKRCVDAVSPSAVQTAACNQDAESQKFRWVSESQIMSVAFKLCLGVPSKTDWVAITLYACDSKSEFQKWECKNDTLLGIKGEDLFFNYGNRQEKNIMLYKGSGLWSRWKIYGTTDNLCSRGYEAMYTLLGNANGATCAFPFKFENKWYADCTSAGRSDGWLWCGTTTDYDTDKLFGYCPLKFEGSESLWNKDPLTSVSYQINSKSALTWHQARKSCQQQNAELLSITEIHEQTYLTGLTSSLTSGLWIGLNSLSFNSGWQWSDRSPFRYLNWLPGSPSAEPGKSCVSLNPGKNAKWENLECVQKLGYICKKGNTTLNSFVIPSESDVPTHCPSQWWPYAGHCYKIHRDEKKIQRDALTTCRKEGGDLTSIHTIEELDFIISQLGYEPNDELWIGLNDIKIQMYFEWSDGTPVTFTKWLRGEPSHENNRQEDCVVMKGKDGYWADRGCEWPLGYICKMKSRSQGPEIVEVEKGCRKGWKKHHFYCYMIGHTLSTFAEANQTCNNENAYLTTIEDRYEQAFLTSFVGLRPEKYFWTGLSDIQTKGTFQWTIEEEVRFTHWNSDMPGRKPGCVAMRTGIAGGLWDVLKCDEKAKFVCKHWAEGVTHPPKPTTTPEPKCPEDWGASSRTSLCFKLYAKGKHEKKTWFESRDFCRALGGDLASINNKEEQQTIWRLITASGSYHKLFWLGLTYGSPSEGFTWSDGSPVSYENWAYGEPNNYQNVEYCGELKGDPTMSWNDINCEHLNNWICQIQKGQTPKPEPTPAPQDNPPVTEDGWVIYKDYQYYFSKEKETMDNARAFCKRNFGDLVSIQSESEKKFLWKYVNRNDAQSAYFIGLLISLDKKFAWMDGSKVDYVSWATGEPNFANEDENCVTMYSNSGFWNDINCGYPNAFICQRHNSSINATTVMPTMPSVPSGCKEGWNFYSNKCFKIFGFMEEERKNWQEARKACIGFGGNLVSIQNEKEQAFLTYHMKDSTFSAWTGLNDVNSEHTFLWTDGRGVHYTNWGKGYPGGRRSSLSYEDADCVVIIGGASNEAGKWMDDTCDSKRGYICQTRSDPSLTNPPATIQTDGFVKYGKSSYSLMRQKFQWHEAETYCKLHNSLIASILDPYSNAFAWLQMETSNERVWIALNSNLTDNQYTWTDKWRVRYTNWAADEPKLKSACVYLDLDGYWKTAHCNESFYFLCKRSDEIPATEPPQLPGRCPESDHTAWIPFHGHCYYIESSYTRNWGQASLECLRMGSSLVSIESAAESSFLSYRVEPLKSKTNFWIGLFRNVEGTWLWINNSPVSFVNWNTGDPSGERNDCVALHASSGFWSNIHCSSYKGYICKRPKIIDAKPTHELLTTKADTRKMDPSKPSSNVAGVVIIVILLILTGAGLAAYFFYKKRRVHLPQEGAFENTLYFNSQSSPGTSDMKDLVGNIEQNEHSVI

Target: CD206 (Homo sapiens, UniProt P22897)
Conditions: tilmanocept and CD206; cited from earlier work

Substance: dextran 3-[(2-aminoethyl)thio]propyl 17-carboxy-10,13,16-tris(carboxymethyl)-8-oxo-4-thia-7,10,13,16-tetraazaheptadec-1-yl 3-[[2-[[1-imino-2-(D-mannopyranosylthio)ethyl]amino]ethyl]thio]propyl ether complexes [tilmanocept]
- Kd: 0.03 nM
